## Measured affinities in a library of Ab-91 heavy chain variants

Target peptide (SARS-CoV-2 spike, HR2 region): PDVDLGDISGINAS

Parent scFv Ab-91: VL joined to VH by a 15-residue (Gly4Ser)3 linker. Changes lie in the heavy chain CDRs alone.
VL: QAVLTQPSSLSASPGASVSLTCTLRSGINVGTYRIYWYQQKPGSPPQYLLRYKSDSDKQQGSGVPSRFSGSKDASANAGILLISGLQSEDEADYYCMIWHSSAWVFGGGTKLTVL
VH: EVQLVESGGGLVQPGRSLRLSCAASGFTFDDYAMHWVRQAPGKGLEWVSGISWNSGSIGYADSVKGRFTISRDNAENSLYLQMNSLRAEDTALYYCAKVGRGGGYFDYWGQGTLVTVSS

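The starting antibody came from a phage panning campaign against this peptide. The library (AAYL51) carries one to three amino acid substitutions per variant, with no insertions or deletions. Affinity was read by AlphaSeq, a pooled yeast mating assay with surface-displayed partners. Binding brings cells together so that they mate, and sequencing counts the barcode pairs among the diploids. Scores were corrected for input abundance and mapped to Kd with protein pairs of known affinity run in the same pool. There are three technical replicates.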

Positions count from residue 1 of the parent VH; V99E puts E in place of V. Numbers give log10(Kd / nM), so 0 is 1 nM and 3 is 1 µM. Smaller is tighter. "ND" means that the variant was in the library but no mating with the target was seen in that replicate; the authors take this as a sign of poor binding, and no number exists. Three control strains display no target. For library AAYL51, 21% of the pairings with them gave a signal, with a median of 4.54 and one signal in twenty below 3.26, so weak values seen in few replicates may be background. For each scFv, signals with the empty controls are counted beside the result, with their mean in brackets.

{"changes": "V99E+Y108L", "replicates, log10 nM": "0.32 -0.12 -0.65", "control signals": "0 of 9"}
{"changes": "W53L+G56C+F106S", "replicates, log10 nM": "1.59 1.43 1.35", "control signals": "3 of 9 (4.93)"}
{"changes": "T28A+F29N+F106E", "replicates, log10 nM": "ND 5.94 ND", "control signals": "1 of 9 (3.95)"}
{"changes": "G56R", "replicates, log10 nM": "1.89 1.86 2.51", "control signals": "2 of 9 (2.80)"}
{"changes": "A33N+K65P+V99Q", "replicates, log10 nM": "ND ND ND", "control signals": "0 of 9"}
{"changes": "D30F+Y32N+Y108P", "replicates, log10 nM": "4.87 4.94 ND", "control signals": "2 of 9 (4.51)"}
{"changes": "I51C+I58H+G103Y", "replicates, log10 nM": "4.14 5.93 4.19", "control signals": "3 of 9 (4.98)"}
{"changes": "F27M+D30G", "replicates, log10 nM": "3.69 4.72 4.23", "control signals": "3 of 9 (4.24)"}
{"changes": "Y32I+I51E+F106C", "replicates, log10 nM": "4.92 ND ND", "control signals": "2 of 9 (4.12)"}
{"changes": "S52L+I58V+Y105H", "replicates, log10 nM": "ND 5.27 ND", "control signals": "4 of 9 (4.60)"}
{"changes": "S52H+G56V+R101K", "replicates, log10 nM": "2.56 ND ND", "control signals": "2 of 9 (2.78)"}
{"changes": "Y32Q+A33N+I51W", "replicates, log10 nM": "ND ND ND", "control signals": "1 of 9 (2.93)"}
{"changes": "G26D+F27P", "replicates, log10 nM": "1.65 1.64 1.36", "control signals": "2 of 9 (3.32)"}
{"changes": "D31K+I51E", "replicates, log10 nM": "ND ND ND", "control signals": "2 of 9 (4.06)"}
{"changes": "A61Y+G100F+D107L", "replicates, log10 nM": "4.70 4.51 ND", "control signals": "3 of 9 (4.76)"}
{"changes": "H35P+S52M+F106P", "replicates, log10 nM": "ND ND ND", "control signals": "1 of 9 (3.67)"}
{"changes": "F29W+K65T+D107Y", "replicates, log10 nM": "4.65 ND ND", "control signals": "1 of 9 (4.93)"}
{"changes": "I51H+S63V+R101G", "replicates, log10 nM": "4.72 2.63 ND", "control signals": "0 of 9"}
{"changes": "N54A+G102F+G103I", "replicates, log10 nM": "ND ND ND", "control signals": "1 of 9 (3.83)"}
{"changes": "W53I+A61W+G103Q", "replicates, log10 nM": "ND 4.59 ND", "control signals": "2 of 9 (4.13)"}
{"changes": "G50I+I51K+S63W", "replicates, log10 nM": "ND ND ND", "control signals": "3 of 9 (3.88)"}
{"changes": "G26S+D31E+S63P", "replicates, log10 nM": "4.84 ND ND", "control signals": "2 of 9 (4.63)"}
{"changes": "W53M+Y60W+G102I", "replicates, log10 nM": "ND 3.85 ND", "control signals": "1 of 9 (4.27)"}
{"changes": "G50V+S52W+S63D", "replicates, log10 nM": "4.81 ND ND", "control signals": "2 of 9 (4.11)"}
{"changes": "F27K+I58W+Y105V", "replicates, log10 nM": "4.09 ND ND", "control signals": "0 of 9"}
{"changes": "S55H+G56D+G103S", "replicates, log10 nM": "3.52 3.19 3.38", "control signals": "0 of 9"}
{"changes": "F27A+D30G+D107W", "replicates, log10 nM": "2.86 4.18 ND", "control signals": "0 of 9"}

The 3 strongest on average among those seen in every replicate, once more:

changes,"replicates, log10 nM",control signals
V99E+Y108L,0.32 -0.12 -0.65,0 of 9
W53L+G56C+F106S,1.59 1.43 1.35,3 of 9 (4.93)
G26D+F27P,1.65 1.64 1.36,2 of 9 (3.32)

Source: Engelhart et al. 2022 (doi:10.1038/s41597-022-01779-4), MIT Lincoln Laboratory and A-Alpha Bio; data file from the FLAb repository.